Yeast mating assay B: variants of the scFv Ab-14

Values reported by Li et al. 2023, doi:10.1038/s41467-023-39022-2 (FLAb copy).

Target peptide (SARS-CoV-2 spike, HR2 region): PDVDLGDISGINAS

Ab-14 is the parent antibody, in scFv form: VH, then the linker GGGGSGGGGSGGGGS, then VL. The heavy chain is unchanged in all variants.
VH: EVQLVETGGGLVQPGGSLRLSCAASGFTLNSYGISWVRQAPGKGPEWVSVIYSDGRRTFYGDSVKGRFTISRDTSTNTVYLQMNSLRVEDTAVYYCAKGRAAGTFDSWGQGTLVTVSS
VL: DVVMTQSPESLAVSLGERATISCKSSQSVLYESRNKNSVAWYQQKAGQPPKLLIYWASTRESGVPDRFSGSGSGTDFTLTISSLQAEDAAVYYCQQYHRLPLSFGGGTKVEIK

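Phage display of a naive human antibody library on the peptide gave the parent. The variants were designed computationally from a first round of random CDR variants and then made and measured. Several design methods are mixed in this list. The assay is AlphaSeq: two haploid yeast populations carry antibody and antigen on their surface. The frequency of each diploid, read from paired DNA barcodes, reflects how well the two displayed proteins bind. Scores were corrected for input abundance and mapped to Kd with protein pairs of known affinity run in the same pool. The assay was run in six technical replicates.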

The parent's light chain CDRs are KSSQSVLYESRNKNSVA, WASTRES, QQYHRLPLS; each variant's own CDRs replace them letter for letter.
Each Kd is an estimate from the mating assay, the geometric mean of the replicates in which the pair was seen; lower is stronger.
Where no diploid with the target was found in any replicate, the entry reads "not detected": below detection, most likely a poor binder, though not proof of it.

CDR-L1	CDR-L2	CDR-L3	Kd (apparent)	replicates with signal	empty controls
MVSQLMMWGLHIKNSIA	EAVTRLN	QQYDRLPLF	230 nM	1/6	0/18
KSSQSVLYESRNKNSVA	AASTRES	QQYAELPLS	6.2 nM	6/6	2/18
KLMQSDLYESRNKNSVA	EASTRES	QQYHRLPLS	2.5 nM	6/6	1/18
HMSMLTLSGMRHRNSVA	QMTTREN	QQYDRLPLA	300 nM	4/6	1/18
KSSQSVQYESNNKNSVA	WASTRES	QQYHELPLS	73 nM	5/6	0/18
KLVQSDLYESRNKNNVA	GVSQRES	QQYHRLPLS	270 pM	6/6	2/18
KISQMVRVGSTHGNSIA	EQATRAK	QQYHRLPLA	47 nM	6/6	0/18
KSSQSVLYESENKNSVA	RASTRNS	QQYHRLPLS	12 nM	6/6	3/18
HMSDSIEKMASHARNIA	DETTLAM	QQYYRLPLS	880 pM	6/6	0/18
KLSATYRFESQNKNSIA	EMTTREK	QCYHRLPLS	6.0 nM	5/6	0/18
KLSQSVLYESRNKNSVA	EASTREK	QQYHRLPLS	970 pM	6/6	1/18
SLGLMTMLEEYVRNSVA	NNSTREE	QQYDRLPLS	47 nM	1/6	0/18
KVSISYLGEKRNKNSVA	EASTRES	QQYHRLPLS	1.4 nM	6/6	2/18
KLTHPTDSWLNHVNSIA	DANISVE	QQYYQLPLT	5.7 nM	6/6	1/18
KVSQSVLYESRNKNSVA	NASQRES	QDYHRLPLS	1.4 nM	6/6	2/18
KSSQSVLYESRYKNSVA	QASTRES	QQYHRLPLS	3.0 nM	6/6	0/18
KLSQVTHLESRNKNSIA	EMVTREV	QQYDRLPLS	2.1 nM	6/6	1/18
HFSQVTMYGYWNKNSVA	QTSTREE	QQYDHLPLS	not detected	0/6	0/18
KSSQMVEFESRNKNSVA	DASTRES	QQYHRLPLS	850 pM	6/6	0/18
HMSMLTMMGMKQRNSVA	QMTTREN	QQYDRLPLM	7.9 nM	6/6	0/18
KLSQSMLYESRAKNSVA	NASTRES	QQYHRLPLS	250 pM	6/6	1/18
KIQQSVLYESLNANSVA	EASTRLS	QQYHRLPLS	6.0 nM	6/6	1/18
KLSQSDEYESRNKNSVA	NASQRES	QQYHRLPLS	450 pM	6/6	2/18
KSSMSQLYESRNKNSVA	GASTRES	QQYHRLPLS	1.1 nM	6/6	1/18
KIEISNSWSLRGTRAIA	QASTRAH	QQYQRLPLT	24 nM	6/6	2/18
KCSQSVLYESRNKNSVA	WASTREP	QQYHRLPLS	11 nM	6/6	0/18
QLLMVTMQGTYNRNSVA	HAETRED	QSYHRLPLS	260 nM	5/6	3/18
KCSQSVKYEDRNWNNVA	NASTRES	QDYHRLPLS	940 pM	6/6	0/18
KLGYTSGGEVNGQHNIA	EMDQLTF	QQYSHLPLS	3.9 nM	6/6	1/18
KSSPSVLYESRNKASVA	DASTRES	QQYHRLPLS	210 nM	1/6	0/18
SLMHLSFVHPYEWNNVA	DASVKVS	QQYFRLPLV	17 nM	6/6	0/18
KSSQSVDGEQRNKNSVA	DASTRES	QQYHRLPLS	840 pM	6/6	1/18
TLYGLSNSMSINKNSVA	EMTTREK	QQYDRLPLV	130 nM	6/6	0/18
SIFHGDELYGQNERNIA	DVQAKIV	QQYTRLPLH	22 nM	6/6	1/18
KFQQSWLYESRNKNSVA	NASCRES	QQYHRLPLS	680 pM	6/6	0/18

Second part, the sequence after the result:

Kd (apparent)	replicates with signal	empty controls	CDR-L1	CDR-L2	CDR-L3
18 nM	6/6	1/18	KISQMTRVGSTHSNSIA	EEVTRAK	QQYHRLPLA
not detected	0/6	0/18	KSSTSVLYESRNKNSVA	WAVTRES	QQYHRLPLS
3.0 nM	6/6	1/18	KFSQSVLYESRTKNSVA	NAFTRGS	QQYHRLPLS
29 nM	6/6	0/18	QLYEMSYELSGKTHSVA	DNSTRGE	QQYFRLPLQ
21 nM	6/6	0/18	KISMLYNYESTNKNNIA	EMTTRES	QHYHRLPLS
490 pM	6/6	0/18	KVSQSFLYESRNKNSVA	DANTRES	QQYHRLPLS
970 pM	6/6	3/18	KSSQSVDYESRNKNSVA	GASTRES	QQYHRLPLS
37 nM	6/6	2/18	KMETHSQDNRLDISAIA	EAQTIYQ	QQYARLPLS
1.8 nM	6/6	1/18	KSGMGVLYESRNKNSVA	GASQRLS	QQYHRLPLS
760 pM	6/6	0/18	KLREVQHVETKQKGNVA	DNSTRES	QDYYRLPLS
550 pM	6/6	2/18	KLWQSVLYESRNKNSVA	NASQRES	QQYHRLPLS
2.5 nM	6/6	2/18	KTPQGVLYESRNKNSVA	GASQRES	QQYHRLPLS
5.8 nM	6/6	0/18	MMSQVQGQGTRHRNNVA	QTETREP	QQYDRLPLI
6.0 µM	2/6	0/18	KSSQSVLYESTNENSVA	WAVTRES	QQYHRLPIS
350 pM	6/6	1/18	KLPQSGLYESRNKNSVA	NASTREQ	QQYHRLPLS
45 nM	6/6	0/18	TMLYQPETINGRVNNVA	NGSEAVE	QQYDRLPFV
1.0 nM	6/6	1/18	VVKNMMNQMGTQHQNIA	NGAIKAD	QQYQRLPLW
6.3 nM	6/6	2/18	KLFDRTMGEIVNQRAVA	EDNVRSV	QQYSQLPLT
360 nM	2/6	0/18	KLVNSTLYESRQKNNVA	WASTRES	QQYHRLPLS
1.7 nM	6/6	1/18	KSSQSVTYESRNENSVA	NASTRES	QQYHRLPLS
950 pM	6/6	0/18	KSSSSYLYESRNKNSVA	EASTRES	QQYHRLPLM
150 nM	4/6	1/18	KVQQSWPYESRNKNSVA	NASQRES	QQYHRLPLS
6.6 nM	6/6	0/18	KLRQSTYIESFNKNNVA	EMSTRES	QSYDRLPLS
890 pM	6/6	0/18	KVRQSTLYESRNKNSVA	AASTRES	QQYHRLPLS
310 nM	1/6	0/18	MIHEMMGLVSHKQSSIA	DNSTREE	QQYDRLPLS
14 nM	6/6	1/18	IVSQLMVWGWHAKNSIA	EAQTRLN	QQYDRLPLF
not detected	0/6	0/18	KISQMSRYEQQNHSSIA	EANTREQ	QSYHRLPLS
880 pM	6/6	1/18	KESQSWPYESRNKNSVA	GASTRES	QQYHRLPLS
4.4 nM	6/6	1/18	KLSGIMRLESKVSNSIA	EMTTRGA	QQYDRLPLS
7.5 nM	6/6	1/18	QFDLFENYQGMQNASIA	GTTNRHT	QQYQKLPLS
280 pM	6/6	1/18	IISQSFLGEYHNKNNVA	QTSERGS	QQYDRLPLS
14 nM	6/6	0/18	LSSISYWYESPNKNSVA	EASTRES	QQYHRLPLS
770 pM	6/6	1/18	KISCSSLYDDANINSVA	NASTRLS	QQYHRLPLS
1.7 nM	6/6	0/18	TISDLMGHISRIHNNVA	DQNTRED	QQYNRLPLS
79 nM	6/6	1/18	SVHGQGTTGEKNWESVA	ENSIRVE	QQYSHLPLL
not detected	0/6	0/18	WSSQSYLYESRCKNSVA	GAQTRES	QQYHRLTLS

Repeated from above, the 11 best binders with a signal in all replicates:

CDR-L1,CDR-L2,CDR-L3,Kd (apparent),replicates with signal,empty controls
KLSQSMLYESRAKNSVA,NASTRES,QQYHRLPLS,250 pM,6/6,1/18
KLVQSDLYESRNKNNVA,GVSQRES,QQYHRLPLS,270 pM,6/6,2/18
IISQSFLGEYHNKNNVA,QTSERGS,QQYDRLPLS,280 pM,6/6,1/18
KLPQSGLYESRNKNSVA,NASTREQ,QQYHRLPLS,350 pM,6/6,1/18
KLSQSDEYESRNKNSVA,NASQRES,QQYHRLPLS,450 pM,6/6,2/18
KVSQSFLYESRNKNSVA,DANTRES,QQYHRLPLS,490 pM,6/6,0/18
KLWQSVLYESRNKNSVA,NASQRES,QQYHRLPLS,550 pM,6/6,2/18
KFQQSWLYESRNKNSVA,NASCRES,QQYHRLPLS,680 pM,6/6,0/18
KLREVQHVETKQKGNVA,DNSTRES,QDYYRLPLS,760 pM,6/6,0/18
KISCSSLYDDANINSVA,NASTRLS,QQYHRLPLS,770 pM,6/6,1/18
KSSQSVDGEQRNKNSVA,DASTRES,QQYHRLPLS,840 pM,6/6,1/18

The authors averaged sequences with at least three values out of six and counted those with two or fewer as poor binders.
A sequence measured in both rounds can read differently, since the two assays cover different ranges.
Empty control strains, which show no peptide, gave a signal in 4% of pairings with all light chain designs; the median was 430 nM and 95% of these signals were weaker than 38 nM. No background was subtracted. The control count says in how many pairings with the empty strains this scFv gave a signal.